Experimental data published in paper PMC10730852 (Communications Biology, 2023).

Assays:
[1] = tested on: Cph001; experiment: Coupled enzyme assay and Michaelis-Menten kinetics of Cph001; assay type: biochemical, Streptosporangium roseum; conditions: CMN IIA varied, mean ± SEM, n = 3
Procedure: The phosphorylation reaction was measured by a coupled enzyme assay as following. […] The reactions were mixed well in a final volume of 200 μL in 96-well plates. The Cph001 activity was assayed by determining the oxidation of NADH at 340 nm. The reaction buffer and enzyme concentration of the Cph reaction was followed by previous study. The 340 nm absorbance changes were detected at 30 °C for every 1 min at a time in 15 min on an EPOCH Microplate Reader (BioTek). All reactions were carried out in triplicate.
The initial velocity data were plotted against substrate concentrations and fit the Michaelis-Menten equation. The Km and Vmax values were calculated based on the Michaelis-Menten equation. GraphPad Prism was used for statistical data analysis. All reactions were carried out in triplicate.

[2] = tested on: Cph; set-up: method as in Previous kinetic studies; conditions: ATP as a phosphate donor; ref Previous kinetic studies; cited from earlier work

For N=C1NCCC([C@@H]2NC(=O)/C(=C/NC(N)=O)NC(=O)[C@H](CNC(=O)C[C@@H](N)CCCN)NC(=O)[C@H](CO)NC(=O)[C@@H](N)CNC2=O)N1 (stereo in doubt) [CMN IIA], the “turnover number (kcat) of Cph001” value ([1]; ATP as phosphate donor (2 mM)) is listed as 0.0105 ± 0.00083 s⁻¹, the “kcat of Cph001” value ([1]; saturating GTP as phosphate donor (2 mM)) is listed as 0.006 ± 0.0005 s⁻¹ and the “kcat value of Cph for CMN IIA” value [2] is listed as 0.29 s⁻¹.
